The subject of the assay is E. coli MG1655 ΔrecA::apra. In words: Evolution of novel antibiotic resistance. Format: cell-based.

From patent publication US20220267754A1, “VECTOR-BASED MUTAGENESIS SYSTEM” (priority 2015, published 2022) come the findings set out here.

Turning to methylnitronitrosoguanidine, the “fraction of cells resistant, CTX” value (5 μg/mL cefotaxime) was determined as 3.67E−07. Further, the “fraction of cells resistant, TET” value (10 μg/mL tetracycline) is reported as 0.00E+00. In addition, the “fraction of cells resistant, KAN” value (30 μg/mL kanamycin) was determined as 5.33E−04. In addition, the “fraction of cells resistant, CRB” value (50 μg/mL carbenicillin, plated after overnight culture without selection) is 0.00E+00. The “fraction of cells resistant, STR” value (50 μg/mL streptomycin) worked out at 2.44E−07. Also, where the note is “100 μg/mL fosfomycin”, the “fraction of cells resistant, FOS” value came out at 1.22E−04. For the same substance, the “fraction of cells resistant, RIF” value (100 μg/mL rifampin) is on record as 5.56E−06. For the same substance, the “fraction of cells resistant, SPC” value (100 μg/mL spectinomycin) stood at 3.67E−05. Besides, the “fraction of cells resistant, MIX” value (MTX, 100 μg/mL metronidazole) was determined as 3.22E−05.
